Bioassay records: PubChem, National Center for Advancing Translational Sciences (NCATS)
A selection: hits, their analogues and other compounds. The true share with any hit is near 16%.
DT40 TDP1 CPT: growth inhibition of DT40 Tdp1-/-;hTDP1 cells with camptothecin (screen for TDP1 inhibitors); chicken DT40 Tdp1-/-;hTDP1 cells + 20 nM CPT, ATP luminescence, 48 h; Potency, µM (top dose mostly 46.2 µM), inactives show at the highest dose activity change, negative = growth inhibition, hits mostly inhibitors; 12% of 420,000 active; AID 686979; also: potency is read from the fitted curve at half-maximal effect; % is scaled to controls: 0 for no effect and ±100 for the full control effect; nearly all actives have a fitted effect of over 55% in size
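Chicken DT40 Tdp1-/- cells stably complemented with human TDP1 were seeded at 400 cells/well in medium containing 20 nM camptothecin, exposed to pin-transferred compounds, and grown at 37 °C for at least 48 hr. Viability was read as ATP luminescence.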
uPA surface inh: blocks generation of uPA at the cell surface. cell surface uPA generation assay, qHTS. Potency, µM (doses to about 38.3 µM), for inactives: at the highest dose activity change, negative = inhibition, hits mostly inhibitors. 0.31% of 330,000 active; active = well fitted inhibition curve with a large enough effect; inconclusive = small, poorly fitted or top-dose-only effect; inactive = no such curve, though single readings can be large or run the other way; tested in mouse RAW 264.7 cells; also: potency is read from the fitted curve at half-maximal effect; % is scaled to controls: 0 for no effect and ±100 for the full control effect; nearly all actives have a fitted effect of over 55% in size
DT40 TDP1 no CPT: qHTS for Inhibitors of human tyrosyl-DNA phosphodiesterase 1 (TDP1): qHTS in cells in absence of CPT; DT40 Tdp1-/- hTDP1 cells, no CPT, ATP luminescence, 48 h; 15% of 420,000 active; Potency, µM (doses to about 46.2 µM), for the others: at the top dose activity change, negative = growth inhibition, usual class: inhibitors; AID 686978, 2013; also: potency is read from the fitted curve at half-maximal effect; % is scaled to controls: 0 for no effect and ±100 for the full control effect; nearly all actives have a fitted effect of over 55% in size
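Cells were dispensed at 400 per well, compounds added by pin tool, plates incubated ≥48 hr at 37 °C, then CellTiter-Glo added for 30 min at room temperature before luminescence reading. Line: DT40 Tdp1-/- complemented with hTDP1; camptothecin omitted.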
miR-21 FLuc: miR-21 reporter, rising signal; Potency, µM (titrated, usually from 38.3 µM), without a hit: at the highest dose reporter change, positive = more light; AID 2288; 340,000 tested, under 10 active; HeLa miR-21 FLuc reporter, luciferase, 48 h; active = well fitted rising curve with a large enough effect; inconclusive = small, poorly fitted or top-dose-only effect; inactive = no such curve, though single readings can be large or run the other way;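 note: % of control where 0% means no effect; miR-21 action dims this reporter so a rising signal means less miR-21 action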
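HeLa cells stably expressing CMV-driven firefly luciferase with a downstream miR-21 binding sequence, endogenously expressing miR-21, were treated with titrations (up to about 40uM final) for 48 hours at 37 degree Celsius. Luciferase luminescence was read after lysis.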
TDP1 inh: blocks human tyrosyl-DNA phosphodiesterase 1. Q9NUW8. recombinant TDP1, AlphaScreen DNA substrate cleavage. Potency, µM (series often up to 130 µM), inactives show top-dose activity change, negative = inhibition, hits mostly inhibitors. 0.28% of 350,000 active; also: potency is read from the fitted curve at half-maximal effect; % is scaled to controls: 0 for no effect and ±100 for the full control effect; nearly all actives have a fitted effect of over 40% in size
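Enzyme-compound mixtures sat 15 min at room temperature, followed by a 5 min reaction with 15 nM final substrate and 10 min with AlphaScreen beads. Recombinant human Tdp1 was used at 1 nM final.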
* hit, by the source's call; [ ] = dose if it differs, or a comment. Unless noted, calls follow the shape of the dose curve; as a rule, active = well fitted curve in the direction sought with a large enough effect; inconclusive = small, poorly fitted or top-dose-only effect, or another doubt; inactive = no such curve, though single readings can be large; an effect the other way counts as inactive or inconclusive.

Cc1ccc2c(c1)C1CN(C)CCC1N2C(=S)NC(=O)c1ccc(Br)cc1 (centres undefined) was read as DT40 TDP1 CPT 9.2µM*, uPA surface inh inconclusive, DT40 TDP1 no CPT inconclusive, miR-21 FLuc -1% and TDP1 inh 5%.
Screening CN1CCN(C(=S)C(=O)Nc2ccc(Br)cc2)CC1 returned DT40 TDP1 CPT 13µM*, uPA surface inh -8%, DT40 TDP1 no CPT inconclusive, miR-21 FLuc -12% and TDP1 inh -4%.
Screening CN1CCN(C(=S)NC(=O)c2ccc(Br)cc2)CC1 returned DT40 TDP1 CPT inconclusive, uPA surface inh 0%, DT40 TDP1 no CPT 5.2µM* and miR-21 FLuc -10%.
For COCCCn1c(=O)c2ccccc2n(CC(=O)NCCC2=CCCCC2)c1=O the results were DT40 TDP1 CPT 2%, uPA surface inh 13%, DT40 TDP1 no CPT inconclusive, miR-21 FLuc 0% and TDP1 inh 4%.
For Cc1ccc(-c2nc(C#N)c(NCc3cccc4c3OCO4)o2)cc1 the results were DT40 TDP1 CPT 2%, uPA surface inh 3%, DT40 TDP1 no CPT 1%, miR-21 FLuc -52% and TDP1 inh 3%.
CC(C)NC(=O)CC(=O)NN=C1CCCCC1 was read as DT40 TDP1 CPT 27%, uPA surface inh 2%, DT40 TDP1 no CPT -1%, miR-21 FLuc 1% and TDP1 inh 6%.
`COC(=O)C1=Cc2cc(OC)cc([N+](=O)[O-])c2OC1N1CCOCC1` (centres undefined) gave DT40 TDP1 CPT inconclusive, uPA surface inh 10%, DT40 TDP1 no CPT 26µM* and miR-21 FLuc 0%.
For COc1ccc(C(=O)NN2CCOCC2)cc1[N+](=O)[O-] the results were DT40 TDP1 CPT -4%, uPA surface inh 1%, DT40 TDP1 no CPT 4%, miR-21 FLuc -4% and TDP1 inh 2%.
CC(C)C(=O)C1=Cc2cc([N+](=O)[O-])ccc2OC1N1CCOCC1 (centres undefined) was read as DT40 TDP1 CPT inconclusive, uPA surface inh -29%, DT40 TDP1 no CPT 26µM* and miR-21 FLuc 3%.
CC(C)C(=O)C1=Cc2cccc([N+](=O)[O-])c2OC1N1CCOCC1 (centres undefined) was read as DT40 TDP1 CPT inconclusive, uPA surface inh inconclusive, DT40 TDP1 no CPT inconclusive and TDP1 inh -2%[56.1 µM].
For Cc1ccc(Cl)cc1NC(=S)N(CCN(C)C)C(C)c1ccccn1 (centres undefined) the results were DT40 TDP1 CPT 1%, uPA surface inh -1%, DT40 TDP1 no CPT 0%, miR-21 FLuc 14% and TDP1 inh 5%.
Screening CC[C@@H]1Cc2[nH][nH]c(=O)c2[C@H](c2ccc(Cl)cc2)O1 returned DT40 TDP1 CPT -25% and DT40 TDP1 no CPT inconclusive.
For COc1ccc(C2C=C(c3ccccc3)Nc3nc(NS(=O)(=O)c4ccc(C)cc4)nn32)cc1 (centres undefined) the results were DT40 TDP1 CPT -12%, DT40 TDP1 no CPT -19%, miR-21 FLuc -12% and TDP1 inh 11%.
COc1ccc(C2C=C(c3ccccc3)Nc3nc(NC(=O)/C=C/c4ccccc4)nn32)cc1 (centres undefined) was read as DT40 TDP1 CPT 9.2µM*, DT40 TDP1 no CPT 7.3µM*, miR-21 FLuc -5% and TDP1 inh 6%.
Screening COc1ccc(C2C=C(c3ccc(Cl)cc3)Nc3nc(NC(C)=O)nn32)cc1 (centres undefined) returned miR-21 FLuc -2% and TDP1 inh 8%.
`COc1ccc(C(=O)Nc2nc3n(n2)C(c2ccccc2)C=C(c2ccccc2)N3)cc1` (centres undefined) gave DT40 TDP1 CPT 18µM*, DT40 TDP1 no CPT inconclusive, miR-21 FLuc 6% and TDP1 inh 9%.
For COc1ccc(C2C=C(c3ccccc3)Nc3nc(NC(=O)/C=C/c4ccccc4OC)nn32)cc1 (centres undefined) the results were DT40 TDP1 CPT 5.8µM*, DT40 TDP1 no CPT 2.6µM*, miR-21 FLuc 1% and TDP1 inh 6%.
Screening O=C(Nc1nc2n(n1)C(c1ccccc1)C=C(c1ccccc1)N2)c1ccco1 (centres undefined) returned DT40 TDP1 CPT 6%, uPA surface inh -3%, DT40 TDP1 no CPT 11%, miR-21 FLuc -2% and TDP1 inh 4%.
O=C(Nc1nc2n(n1)C(c1ccccc1)C=C(c1ccc(Cl)cc1)N2)c1ccco1 (centres undefined) was read as DT40 TDP1 CPT 21µM*, DT40 TDP1 no CPT 23µM* and miR-21 FLuc 7%.
`COc1cc(C(=O)N2CCC(C(N)=O)CC2)ccc1OCc1c(C)noc1C` gave DT40 TDP1 CPT 19%, uPA surface inh 4%, DT40 TDP1 no CPT 3% and TDP1 inh 0%.
For O=C1OC(c2ccccc2)(c2ccccc2)c2ccsc21 the results were DT40 TDP1 CPT 2% and DT40 TDP1 no CPT -8%.
For CCc1ccc2[nH]c(=O)c(CN(Cc3ccccc3)Cc3nnnn3Cc3ccco3)cc2c1 the results were DT40 TDP1 CPT inconclusive, uPA surface inh -7%, DT40 TDP1 no CPT 16µM*, miR-21 FLuc -5% and TDP1 inh 8%.
CCOC(=O)Cn1nnnc1CN(Cc1ccccc1)Cc1cc2cc(CC)ccc2[nH]c1=O was read as DT40 TDP1 CPT 21µM*, uPA surface inh -1%, DT40 TDP1 no CPT inconclusive, miR-21 FLuc -10% and TDP1 inh 4%.
Cc1cc(C)c2cc(CN(Cc3ccc4c(c3)OCO4)Cc3nnnn3Cc3ccco3)c(=O)[nH]c2c1 was read as DT40 TDP1 CPT inconclusive, uPA surface inh -9%, DT40 TDP1 no CPT inconclusive, miR-21 FLuc -11% and TDP1 inh 7%.
For Cc1ccc2[nH]c(=O)c(CN(Cc3ccccc3)Cc3nnnn3Cc3ccccc3)cc2c1 the results were DT40 TDP1 CPT inconclusive, DT40 TDP1 no CPT 13µM* and TDP1 inh 2%.
Screening Cc1ccc2[nH]c(=O)c(CN(Cc3ccc4c(c3)OCO4)Cc3nnnn3Cc3ccco3)cc2c1 returned DT40 TDP1 CPT 12µM*, uPA surface inh -10%, DT40 TDP1 no CPT inconclusive, miR-21 FLuc 0% and TDP1 inh 7%.
For CCc1ccc2[nH]c(=O)c(CN(Cc3ccccc3)Cc3nnnn3Cc3ccccc3)cc2c1 the results were DT40 TDP1 CPT inconclusive, DT40 TDP1 no CPT inconclusive and TDP1 inh 4%.
Cc1cc(C)c(C)c(S(=O)(=O)N2CCSCC2)c1C was read as DT40 TDP1 CPT 0%, uPA surface inh -21%, DT40 TDP1 no CPT -8% and miR-21 FLuc -2%.

Of the compounds above, these contain a nitro group on carbon:
`COC(=O)C1=Cc2cc(OC)cc([N+](=O)[O-])c2OC1N1CCOCC1` (centres undefined) gave DT40 TDP1 CPT inconclusive, uPA surface inh 10%, DT40 TDP1 no CPT 26µM* and miR-21 FLuc 0%.
For COc1ccc(C(=O)NN2CCOCC2)cc1[N+](=O)[O-] the results were DT40 TDP1 CPT -4%, uPA surface inh 1%, DT40 TDP1 no CPT 4%, miR-21 FLuc -4% and TDP1 inh 2%.
CC(C)C(=O)C1=Cc2cc([N+](=O)[O-])ccc2OC1N1CCOCC1 (centres undefined) was read as DT40 TDP1 CPT inconclusive, uPA surface inh -29%, DT40 TDP1 no CPT 26µM* and miR-21 FLuc 3%.
CC(C)C(=O)C1=Cc2cccc([N+](=O)[O-])c2OC1N1CCOCC1 (centres undefined) was read as DT40 TDP1 CPT inconclusive, uPA surface inh inconclusive, DT40 TDP1 no CPT inconclusive and TDP1 inh -2%[56.1 µM].
